Bioassay records as filed in PubChem.
In the library only some 4.2% were active in any assay of this set; here they are far more common.
MC4R ag barr – activates human MC4R beta-arrestin recruitment; P32245; U2OS MC4R beta-arrestin complementation, luminescence; percent of melanotan II response, DMSO zero; activation, % at 8.9 µM; hit rate 0.98% among 360,000;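 active = activation above a per-plate cutoff, the mean activation of sample wells on that plate plus 3 SD, cut at about 8% in these data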
UUG fidelity – modulators of start codon recognition fidelity in yeast; S. cerevisiae UUG-firefly luciferase reporter, luminescence/redox ratio; activity score, % at 18.7 µM; hit rate 0.13% among 350,000; AID 602363;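 active = replicate mean at a twofold rise or more, about +100% in these data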;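 note: firefly luciferase made from a UUG start codon reports start codon fidelity; reporter light over untreated wells divided by growth signal over untreated wells; some hits fall short of that in this replicate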
HDAC3 inhib – inhibitors of human histone deacetylase 3; recombinant HDAC3, fluorogenic peptide/trypsin coupled, fluorescence; inhibition, % at 8.3 µM; hit rate 0.15% among 320,000; AID 2718; in the data active = inhibition above about 26%, passing the limit was not always enough; inconclusive = no clear call, values can overlap the other calls
ALR H2O2 inh – inhibitors of human ALR sulfhydryl oxidase, primary screen, biochemical, H2O2 detection, HRP-luminol luminescence, single point. purified ALR, DTT oxidation. inhibition, % (concentration not given with the values). 290,000 compounds, 3.8% hits. AID 485317, 2010;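 active = mean and each replicate at 75% or more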;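 note: stock transfer was 7.5 nL into about 7.5 µL; 0% = neutral wells and 100% = wells with inactivated enzyme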
MC4R antag cAMP – blocks human MC4R cAMP signaling | AID 540295 | MC4R-expressing cells, MTII-stimulated cAMP, LANCE TR-FRET | inhibition, % at 6.5 µM | hit rate 0.48% among 360,000 | P32245;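 active = inhibition above its plate's cutoff, the mean of tested wells on that plate plus 3 SD, cut at about 29% in these data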;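 also: 0% = Melanotan II alone and 100% = Melanotan II plus saturating MCL0020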
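Assay system: U2OS-MC4R stable cell line; Also added: Melanotan II; Technique: Eu-cAMP/anti-cAMP TR-FRET, emission 671 nm; Times: 30-min compound, 1-h challenge, 1-h detection, room temperature.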
NALP1 yeast inh – blocks the NALP1 inflammasome reconstituted in yeast; S. cerevisiae NALP1/ASC/caspase-1 growth, X-gal OD620, 72 h; inhibition, % at 10 µM; AID 2071; hit rate 0.61% among 280,000; in the data active = inhibition mostly above about 24%, no sharp cut-off; inactive = mostly below about 32%
* marks the source's active call; other numbers are inactive results; u = inconclusive; x = not tested or not shown.

Preview (2 entries):
The line under a structure holds: MC4R ag barr, UUG fidelity, HDAC3 inhib, ALR H2O2 inh, MC4R antag cAMP, NALP1 yeast inh
C[C@@H]1CN([C@H](C)CO)C(=O)c2cc(NS(=O)(=O)c3ccc(F)cc3)ccc2O[C@H]1CN(C)Cc1ccc(C(=O)O)cc1
 : x, 9, x, x, x, x
N#C/C(=N\Nc1ccc(Br)cc1)C(=N)N1CCOCC1
 : -3, -4, -6, 98*, 5, -16

The whole of this part, repeating the preview:
The line under a structure holds: MC4R ag barr, UUG fidelity, HDAC3 inhib, ALR H2O2 inh, MC4R antag cAMP, NALP1 yeast inh
C[C@@H]1CN([C@H](C)CO)C(=O)c2cc(NS(=O)(=O)c3ccc(F)cc3)ccc2O[C@H]1CN(C)Cc1ccc(C(=O)O)cc1
 : x, 9, x, x, x, x
N#C/C(=N\Nc1ccc(Br)cc1)C(=N)N1CCOCC1
 : -3, -4, -6, 98*, 5, -16
CN(C)CCC(c1ccc(Cl)cc1)c1ccccn1 (stereo unspecified)
 : -1, 4, 0, 3, -2, 5
CN(C)CCC1c2ccc(Cl)cc2CCc2cccnc21 (stereo unspecified) (tested in a mixture with another compound)
 : 0, -9, 1, -1, 6, 40*
COC(=O)CCC/C=C1/SCC(NC(=O)c2ccccc2)C1O (stereo unspecified)
 : -2, -15, 13, 97*, 1, 3
CCOP(=O)(OCC)/C(=C/N1CCCCC1)NC(=O)c1ccccc1
 : -3, 3, 12, 0, 17, 34*
CO[C@@H]1CN(C)C(=O)c2cc(NS(C)(=O)=O)ccc2OC[C@@H](C)N(Cc2ccccc2)C[C@@H]1C
 : x, 2, x, x, x, x
CCOC(=O)n1c(SCC(N)=O)nc2ccccc21
 : 0, -14, -3, 2, -5, 26*
O=C(O)c1ccc2c(=O)[nH]c(CN3CCOCC3)nc2c1
 : 0, -1, -1, 6, 1, 7
O=c1[nH]c(CN2CCOCC2)nc2ccccc12
 : -1, 10, -5, 5, 19, 24*
c1ccc(CNc2nc3ccccc3[nH]2)cc1
 : 0, -9, -4, 18, 10, -7
COc1ccc2nc(NCc3ccccc3)[nH]c2c1
 : 1, -21, -1, 95*, -6, 21
COc1ccc2nc(N3CCCC3)[nH]c2c1
 : 0, -12, -8, 96*, 0, 4
COc1ccc2nc(NCCO)[nH]c2c1
 : -2, -2, -4, x, 5, 26
Cc1ccc2nc(NCc3ccccc3)[nH]c2c1
 : -3, -14, -1, 99*, -21, -2
O=c1[nH]c2ccc(NC(=S)Nc3ccc(F)cc3)cc2[nH]1
 : 1, -17, 2, 90*, 22, -1
O=c1[nH]c2ccc(NCc3ccc(F)cc3)cc2[nH]1
 : 0, -10, -1, 100*, 3, 22
Cc1c(Cl)cccc1NC(=S)Nc1ccc2[nH]c(=O)[nH]c2c1
 : -2, -22, 6, 95*, -2, x
COc1cc(CNc2ccc3[nH]c(=O)[nH]c3c2)cc(Br)c1OCc1ccc(F)cc1
 : -1, -24, -11, 19, -5, 16
O=C(NC(=S)Nc1ccc2[nH]c(=O)[nH]c2c1)c1ccccc1Cl
 : -2, -12, 0, x, 19, 12
O=C(c1cccc(F)c1)N1C[C@@H]2[C@H](c3ccccc31)[C@@H](CO)N2C(=O)c1ccc(F)cc1
 : x, 1, x, x, x, x
COc1ccc(CN(C)C[C@H]2OCCCC[C@H](C)Oc3ccc(NC(=O)NC(C)C)cc3C(=O)N([C@H](C)CO)C[C@@H]2C)cc1
 : x, 33, x, x, x, x
C=CCOn1c(=O)c(-c2cc3ccccc3o2)[n+]([O-])c2ccccc21
 : 2, -13, 4, -3, -13, 28*
CCN(CC)CC(C(=O)N(CC)CC)P(=O)(c1ccccc1)c1ccccc1 (stereo unspecified)
 : 1, -10, 1, -3, 12, 42*
CCCOc1cccc(C2C(C(=O)c3ccc(C)o3)=C(O)C(=O)N2c2nc(C)c(C(C)=O)s2)c1 (stereo unspecified)
 : 0, -7, -10, 97*, 21, 21
CCOc1cccc(C2C(C(=O)c3ccc(C)o3)=C(O)C(=O)N2c2nnc(C)s2)c1 (stereo unspecified)
 : 0, 0, x, x, 5, x
Cc1cc(N2C(=O)C(O)=C(C(=O)c3ccc(C)o3)C2c2cccc(Oc3ccccc3)c2)no1 (stereo unspecified)
 : -3, -1, 4, 12, 13, 38*
COc1cccc(C2C(C(=O)c3cc4ccccc4o3)=C(O)C(=O)N2c2cc(C)on2)c1 (stereo unspecified)
 : -1, -13, 4, 98*, 12, 2
Cc1cc(N2C(=O)C(O)=C(C(=O)c3ccc(C)o3)C2c2ccc([N+](=O)[O-])cc2)no1 (stereo unspecified)
 : -5, -10, 4, 97*, 7, 10
COCC(=O)N(C)C[C@@H]1Oc2ncc(C3=CCCC3)cc2C(=O)N([C@@H](C)CO)C[C@H]1C
 : x, 0, x, x, x, x

Retrieved one by one from above (2):
The line under a structure holds: MC4R ag barr, UUG fidelity, HDAC3 inhib, ALR H2O2 inh, MC4R antag cAMP, NALP1 yeast inh
Cc1ccc2nc(NCc3ccccc3)[nH]c2c1
 : -3, -14, -1, 99*, -21, -2
O=c1[nH]c2ccc(NC(=S)Nc3ccc(F)cc3)cc2[nH]1
 : 1, -17, 2, 90*, 22, -1

Next part.
The line under a structure holds: MC4R ag barr, UUG fidelity, HDAC3 inhib, ALR H2O2 inh, MC4R antag cAMP, NALP1 yeast inh
C[C@H](CO)N1C[C@H](C)[C@H](CN(C)C(=O)C2CCCCC2)Oc2cc(-c3cccnc3)ccc2S1(=O)=O
 : x, -4, x, x, x, x
Cc1ccc(NC(=O)CSc2nnc(C)c(=O)n2N)cc1
 : -3, x, -16, 5, -1, -11
Cc1nnc(SCC(=O)Nc2ccc(S(N)(=O)=O)cc2)n(N)c1=O
 : 1, -25, -2, 99*, 0, x
CCc1nnc(NC(=O)CSc2nnc(C)c(=O)n2N)s1
 : -4, 9, 3, 95*, -2, 2
CCc1ccc(NC(=O)CSc2nnc(C)c(=O)n2N)cc1
 : -2, -21, 0, 99*, 1, 9
Cc1noc(C)c1S(=O)(=O)Nc1ccc2c(c1)C(=O)N([C@H](C)CO)C[C@@H](C)[C@@H](CN(C)S(=O)(=O)c1cccs1)OCCCC[C@@H](C)O2
 : x, 4, x, x, x, x
O=S(=O)(N[C@H]1CC[C@@H](CCn2cc(C3(O)CCCC3)nn2)O[C@H]1CO)c1ccc(Cl)cc1
 : x, -7, x, x, x, x
C[C@@H]1CN([C@H](C)CO)C(=O)Cc2cc(NC(=O)Nc3ccccc3)ccc2O[C@H]1CN(C)C(=O)Nc1ccc(F)cc1
 : x, 6, x, x, x, x
Cc1cccc(NC2SC(=O)N(c3ccccc3)C2=O)c1 (stereo unspecified)
 : -2, -19, 4, -15, -1, -2
CCCN1C(=O)SC(CC(=O)Nc2ccc(C)cc2)C1=O (stereo unspecified)
 : -1, -12, 1, -8, 13, 6
O=C(CC1SC(=O)N(c2ccccc2)C1=O)Nc1ccccc1 (stereo unspecified)
 : -4, x, 19, 98*, 12, -14
N=C1SC(CC(=O)Nc2ccc([N+](=O)[O-])cc2)C(=O)N1c1ccccc1 (stereo unspecified)
 : -1, -4, 1, -11, -7, 14
Cc1cccc(NC(=O)CC2SC(=O)N(c3ccccc3)C2=O)c1 (stereo unspecified)
 : -2, x, 17, 98*, -3, -1
Cc1ccc(NC(=O)CC2SC(=O)N(c3ccccc3)C2=O)cc1 (stereo unspecified)
 : -2, -32, u, 98*, 1, -55
CN1c2ccc(Br)cc2[C@@H]2[C@@H](CCN2C(=O)Nc2ccccc2F)[C@@H]1CO
 : x, -5, x, x, x, x
